By UniProt entry, the sequences of proteins in these tests, tags left out. Residues count along the entry.
UniProt P09871, 438-688 limits assumed: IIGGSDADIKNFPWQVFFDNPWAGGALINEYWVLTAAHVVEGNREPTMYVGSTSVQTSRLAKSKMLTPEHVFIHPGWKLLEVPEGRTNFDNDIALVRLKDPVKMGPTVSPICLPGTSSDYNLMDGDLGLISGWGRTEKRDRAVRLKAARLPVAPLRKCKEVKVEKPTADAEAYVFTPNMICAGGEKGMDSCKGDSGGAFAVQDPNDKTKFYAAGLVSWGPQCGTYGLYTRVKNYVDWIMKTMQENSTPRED
UniProt P09871, 16-437 partner limits assumed: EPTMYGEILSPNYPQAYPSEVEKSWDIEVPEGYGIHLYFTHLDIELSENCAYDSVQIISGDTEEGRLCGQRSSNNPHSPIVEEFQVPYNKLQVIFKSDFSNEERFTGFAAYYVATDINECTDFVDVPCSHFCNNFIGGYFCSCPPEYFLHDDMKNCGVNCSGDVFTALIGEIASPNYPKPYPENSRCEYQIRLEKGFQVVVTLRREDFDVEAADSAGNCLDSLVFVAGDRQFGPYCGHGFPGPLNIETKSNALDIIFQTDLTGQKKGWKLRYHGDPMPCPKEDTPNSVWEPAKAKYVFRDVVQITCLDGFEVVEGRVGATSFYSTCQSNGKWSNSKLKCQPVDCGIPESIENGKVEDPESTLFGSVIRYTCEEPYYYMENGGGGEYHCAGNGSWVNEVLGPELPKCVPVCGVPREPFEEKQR

According to patent US20260184707A1, “PHARMACEUTICAL COMPOUNDS FOR THE TREATMENT OF COMPLEMENT MEDIATED DISORDERS” (ALEXION PHARMACEUTICALS, INC., priority 2022, published 2026):

Biological target: Human complement C1s enzyme (Homo sapiens, UniProt P09871)
Test: Human C1s enzyme assay
Assay type: biochemical
Settings: read-out: IC50 (Stars); human complement C1s enzyme 1.16 nM, substrate Z-L-Lys-SBzl, A405
Experimental: The […] values of the compounds of Table 1 were determined with the human C1s enzyme assay described below. Other standard complement assays are also available.
Human complement C1s enzyme (purified from human serum, Complement Technology, Inc.) at 1.16 nM final concentration was incubated with test compound at various concentrations for 5 min at room temperature in 50 mM Tris, 1 M NaCl, pH 7.5. A synthetic substrate Z-L-Lys-SBzl and DTNB (Ellman's reagent) were added to final concentrations of 100 μM each. Absorbance at 405 nm (A405) was recorded at 30 second intervals for […] using a microplate spectrophotometer. IC values were calculated by nonlinear regression of complement C1s reaction rates as a function of test compound concentration.
[…]; ND indicates a compound for which the IC50 value is not determined.

Row | SMILES | pIC50
1 | C[C@@H](Nc1cnc(-c2ccccc2F)n(CC(=O)NCc2cc3cnccc3[nH]2)c1=O)c1ccc2oc3cccc(F)c3c2c1 | > 7.00
2 | O=C(Cn1c(-c2ccccc2)ncc(NCCCc2ccc(OCF)cc2)c1=O)NCc1cc2cnccc2[nH]1 | > 7.00
3 | C[C@@H](Nc1cnc(-c2ccccc2F)n(CC(=O)NCc2cc3cnccc3[nH]2)c1=O)c1ccc2oc3ccc(F)cc3c2c1 | > 7.00

pIC50: −log10 of the molar value.
